{
  "source": "paper PMC8713164",
  "about": "“Development of a 1,2,4-Triazole-Based Lead Tankyrase Inhibitor: Part II” (Journal of Medicinal Chemistry, 2021)",
  "origin": "cited, not measured here",
  "system": "RKO cells",
  "details": "cited from earlier work",
  "data": [
    {"compound": "CCOc1ccc(-c2nnc([C@H]3C[C@H](NC(=O)c4ccccn4)C3)n2-c2ccccc2F)nc1", "note": "[Compound 1]", "values": [
      {"measurement": "GI50", "value": "> 10", "unit": "µM"}
    ]}
  ]
}
